## AlphaSeq binding of Ab-14 heavy chain variants to a spike HR2 peptide

From the AlphaSeq antibody data of Li et al. 2023 (doi:10.1038/s41467-023-39022-2), copy in the FLAb collection.

Target: peptide PDVDLGDISGINAS, taken from heptad repeat 2 (HR2) of SARS-CoV-2 spike.

Parent scFv Ab-14: VH joined to VL by a (GGGGS)3 linker. Changes lie in the heavy chain CDRs alone.
VH: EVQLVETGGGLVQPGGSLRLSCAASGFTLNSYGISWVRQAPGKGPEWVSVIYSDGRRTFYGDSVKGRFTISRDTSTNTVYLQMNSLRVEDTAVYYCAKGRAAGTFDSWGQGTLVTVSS
VL: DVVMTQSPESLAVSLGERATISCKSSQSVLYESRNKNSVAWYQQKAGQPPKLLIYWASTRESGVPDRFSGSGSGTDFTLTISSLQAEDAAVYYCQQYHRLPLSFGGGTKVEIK

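Phage display of a naive human antibody library on the peptide gave the parent. Designed CDR sequences, proposed from the first random library and measured here. Their group label is 14H_En_Gen (En: ensemble of fine-tuned language models; Gen: genetic algorithm). AlphaSeq pools MATa yeast showing the antibodies with MATalpha yeast showing the peptide. After mating in shaken culture at 30 °C for 16 h, diploids were selected and their barcode pairs sequenced. Each replicate has its own calibration line, from reference interactions of the BCL2 family. The assay was run in six technical replicates.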

The parent's heavy chain CDRs are GFTLNSYGIS, VIYSDGRRTFYGDSVK, GRAAGTFDS; each variant's own CDRs replace them letter for letter. Affinities are written as log10 Kd with Kd in nM; a lower number is a better binder. "ND" means that the variant was in the library but no mating with the target was seen in that replicate; the authors take this as a sign of poor binding, and no number exists.

CDR-H1	CDR-H2	CDR-H3	log10 Kd (nM) by replicate	control signals
GFDLDEYGIS	VIYADGMRTSYADSVK	GEVAGTFDV	0.16 / -0.58 / -0.53 / -0.21 / -0.01 / -0.29	2 of 18 (2.36)
GFDLNEYGIS	VIYADGVRTAYQDSVK	GNQAGTFDV	0.48 / 0.85 / 0.27 / 0.34 / -0.17 / 0.76	0 of 18
GFDLNEYGIS	VIYADGVRTAYVDSVK	GNTAGTFDV	-0.43 / -0.40 / -0.72 / -0.39 / -0.51 / -0.34	0 of 18
GFDLDEYGIS	VIYADGMRTAYIDSVK	GTNAGTFDV	-0.43 / -0.28 / -0.64 / -0.84 / -0.53 / -0.31	0 of 18
GFDLNEYGIS	VIYADGMRKAYADSVK	GQNAGTFDV	ND / ND / ND / ND / ND / ND	0 of 18
GFDLNEYGIS	VIYADGVRTAYSDSVK	GETAGTFDQ	0.43 / -0.12 / -0.29 / -0.47 / -0.28 / -0.30	0 of 18
GFDLNEYGIS	VIYADGMRTYYADNVK	GNVAGTFDV	-0.62 / -0.70 / -0.91 / -0.89 / -0.80 / -0.58	0 of 18
GFDLNEYGIS	VIYADGMRTAYSDKVK	GNNAGTFDV	-0.18 / -0.32 / -0.09 / -0.44 / -0.38 / -0.22	0 of 18
GFDLDEYGIS	VIYADGMRTVYADSVK	GETAGTFDL	-0.30 / -0.27 / -0.45 / -0.85 / -0.18 / -0.23	0 of 18
GFDLNEYGIS	VIYADGMRTAYIDSVK	GEVAGTFDI	-0.71 / -0.62 / -0.73 / -0.44 / -0.70 / -0.74	1 of 18 (2.00)
GFDLNEYGIS	VIYADGVRTAYADSVK	GNNAGTFDV	-0.24 / -0.56 / -0.62 / -0.60 / -0.62 / -0.21	0 of 18
GFDLNEYGIS	VIYADGMRTAYADSVK	GKNAGTFDM	-0.05 / -0.27 / -0.63 / -0.73 / 0.13 / -0.29	0 of 18
GFDLNEYGIS	VIYADGMRTVYADDVK	GQNAGTFDV	-0.49 / -0.31 / -0.59 / -0.69 / -0.45 / -0.52	0 of 18
GFDLNEYGIS	VIYADGRRTAYADSVK	GTVAGTFDV	-0.02 / -0.28 / -0.54 / -0.87 / -0.56 / -0.18	0 of 18
GFDLDEYGIS	VIYADGQRTAYADNVK	GEVAGTFDV	-0.09 / -0.23 / -0.30 / -0.41 / -0.33 / -0.32	0 of 18
GFDLNEYGIS	VIYADGRRTAYADSVK	GTNAGTFDV	ND / ND / ND / ND / ND / ND	0 of 18
GFDLNEYGIS	VIYADGSRTAYVDSVK	GNVAGTFDT	0.07 / 0.05 / -0.50 / -0.06 / -0.36 / -0.17	0 of 18
GFDLNEYGIS	VIYADGMRTAYSDNVK	GNVAGTFDI	-0.48 / -0.79 / -0.66 / -0.92 / -0.69 / -0.49	1 of 18 (3.44)
GFDLNEYGIS	VIYADGRRTAYSDSVK	GNNAGTFDM	0.06 / -0.19 / -0.01 / -0.08 / -0.10 / 0.03	0 of 18
GFDLNEYGIS	VIYADGMRTAYSDDVK	GETAGTFDI	0.03 / 0.11 / -0.23 / -0.62 / -0.46 / -0.61	0 of 18
GFDLNEYGIS	VIYADGMRTFYVDSVK	GENAGTFDV	1.00 / -0.43 / -0.20 / -0.55 / 1.96 / 1.06	0 of 18
GFDLDEYGIS	VIYADGLRTAYTDSVK	GNVAGTFDV	0.09 / -0.43 / -0.45 / -0.38 / -0.44 / -0.45	0 of 18
GFDLNEYGIS	VIYADGMRTSYSDSVK	GENAGTFDV	-0.70 / -0.73 / -0.83 / -0.92 / -0.99 / -0.39	0 of 18
GFDLDEYGIS	VIYADGQRTAYSDSVK	GNVAGTFDI	ND / ND / ND / -1.12 / ND / ND	0 of 18
GFDLNEYGIS	VIYADGSRTAYADDVK	GNNAGTFDI	0.15 / 0.19 / -0.53 / -0.20 / -0.45 / -0.49	0 of 18
GFDLNEYGIS	VIYADGMRTAYSDSVK	GVNAGTFDI	-0.34 / -0.48 / -0.34 / -0.44 / -0.24 / -0.05	1 of 18 (1.86)
GFDLDEYGIS	VIYADGQRTAYADSVK	GKNAGTFDV	-0.49 / -0.38 / -0.58 / -0.45 / -0.66 / -0.40	1 of 18 (3.32)
GFDLNEYGIS	VIYADGMRTAYADSVK	GNVAGTFDM	0.25 / 0.38 / 0.01 / -0.37 / -0.29 / 0.32	1 of 18 (0.75)
GFDLDEYGIS	VIYADGMRTAYSDNVK	GNVAGTFDV	-0.06 / -0.40 / -0.62 / -0.62 / -0.65 / -0.52	0 of 18
GFDLDEYGIS	VIYADGQRTAYADSVK	GNEAGTFDM	0.66 / -0.33 / 0.32 / 0.41 / -0.40 / -0.25	0 of 18
GFDLDEYGIS	VIYADGQRTAYVDSVK	GEVAGTFDV	ND / ND / ND / ND / ND / ND	0 of 18
GFDLNEYGIS	VIYADGMRTAYSDSVK	GNVAGTFVL	-0.18 / -0.26 / -0.33 / -0.73 / -0.57 / -0.36	2 of 18 (1.88)
GFDLNEYGIS	VIYADGVRTAYADKVK	GGNAGTFDV	-0.25 / -0.58 / -0.73 / -0.34 / -0.68 / -0.80	0 of 18
GFDLDEYGIS	VIYADGKRTAYVDSVK	GEVAGTFDL	0.15 / -0.03 / -0.23 / -0.11 / -0.25 / 0.00	1 of 18 (1.75)
GFDLNEYGIS	VIYADGQRTAYIDSVK	GNVAGTFDI	-0.57 / -0.77 / -0.68 / -0.84 / -0.78 / -0.44	0 of 18
GFDLNEYGIS	VIYADGMRKAYADSVK	GNVAGTFDI	-0.88 / -1.30 / -1.65 / -1.25 / -0.97 / -0.82	0 of 18
GFDLNEYGIS	VIYADGMRTAYADSVK	GGNAGTFDM	-0.06 / -0.44 / -0.66 / -0.91 / -0.74 / -0.37	1 of 18 (0.99)
GFDLNEYGIS	VIYADGSRTAYVDSVK	GNNAGTFDV	-0.21 / -0.24 / -0.29 / -0.40 / -0.38 / -0.17	0 of 18
GFDLNEYGIS	VIYADGVRTAYADKVK	GTNAGTFDV	-0.16 / 0.66 / 0.01 / 0.23 / -1.10 / 0.18	0 of 18
GFDLNEYGIS	VIYADGSRTAYTDSVK	GENAGTFDV	-0.73 / -0.50 / -1.00 / -0.54 / -0.81 / -0.67	1 of 18 (2.13)
GFDLDEYGIS	VIYADGKRKAYADSVK	GENAGTFDV	0.19 / -0.52 / -0.47 / -0.50 / -0.65 / -0.54	0 of 18
GFDLNEYGIS	VIYADGVRTAYADSVK	GVNAGTFDV	0.02 / -0.62 / -0.81 / -0.65 / -0.56 / 0.07	0 of 18
GFDLEDYGIS	VIYADGMRTAYSDSVK	GENAGTFDI	0.28 / 0.04 / -0.34 / 0.28 / 0.55 / 0.14	0 of 18
GFDLNEYGIS	VIYADGVRTAYADSVK	GETAGTFDL	-0.93 / -1.22 / -0.90 / -1.18 / -0.97 / -0.22	0 of 18
GFDLNEYGIS	VIYADGLRTAYSDSVK	GENAGTFDI	-0.24 / -0.46 / -0.43 / -0.45 / -0.37 / 0.11	0 of 18
GFDLNEYGIS	VIYADGVRTAYSDSVK	GNVAGTFDV	0.65 / 0.49 / -0.08 / -0.21 / -0.23 / -0.09	0 of 18
GFDLDEYGIS	VIYADGQRTFYADSVK	GNVAGTFDL	-0.52 / -0.33 / -0.27 / -0.92 / -0.63 / -0.60	0 of 18
GFDLNEYGIS	VIYADGMRTAYADDVK	GNNAGTFDI	-0.27 / 0.02 / -0.02 / -0.24 / 0.00 / 0.09	0 of 18
GFDLNEYGIS	VIYADGMRTAYTDSVK	GQNAGTFDT	-0.05 / -0.11 / 0.33 / -0.39 / 0.00 / -0.32	0 of 18
GFDLDEYGIS	VIYADGQRTAYADNVK	GNQAGTFDV	0.18 / -0.34 / -0.02 / 0.32 / -0.30 / 0.04	0 of 18
GFDLNEYGIS	VIYADGMRTAYQDSVK	GENAGTFDV	-0.16 / -0.03 / -0.34 / -0.80 / -0.36 / -0.47	0 of 18
GFDLNEYGIS	VIYADGMRTVYADSVK	GNTAGTFDV	0.67 / ND / -0.15 / -0.45 / -0.02 / 0.93	0 of 18

Excerpt, the first 8 entries:

{"CDR-H1": "GFDLDEYGIS", "CDR-H2": "VIYADGMRTSYADSVK", "CDR-H3": "GEVAGTFDV", "log10 Kd (nM) by replicate": "0.16 / -0.58 / -0.53 / -0.21 / -0.01 / -0.29", "control signals": "2 of 18 (2.36)"}
{"CDR-H1": "GFDLNEYGIS", "CDR-H2": "VIYADGVRTAYQDSVK", "CDR-H3": "GNQAGTFDV", "log10 Kd (nM) by replicate": "0.48 / 0.85 / 0.27 / 0.34 / -0.17 / 0.76", "control signals": "0 of 18"}
{"CDR-H1": "GFDLNEYGIS", "CDR-H2": "VIYADGVRTAYVDSVK", "CDR-H3": "GNTAGTFDV", "log10 Kd (nM) by replicate": "-0.43 / -0.40 / -0.72 / -0.39 / -0.51 / -0.34", "control signals": "0 of 18"}
{"CDR-H1": "GFDLDEYGIS", "CDR-H2": "VIYADGMRTAYIDSVK", "CDR-H3": "GTNAGTFDV", "log10 Kd (nM) by replicate": "-0.43 / -0.28 / -0.64 / -0.84 / -0.53 / -0.31", "control signals": "0 of 18"}
{"CDR-H1": "GFDLNEYGIS", "CDR-H2": "VIYADGMRKAYADSVK", "CDR-H3": "GQNAGTFDV", "log10 Kd (nM) by replicate": "ND / ND / ND / ND / ND / ND", "control signals": "0 of 18"}
{"CDR-H1": "GFDLNEYGIS", "CDR-H2": "VIYADGVRTAYSDSVK", "CDR-H3": "GETAGTFDQ", "log10 Kd (nM) by replicate": "0.43 / -0.12 / -0.29 / -0.47 / -0.28 / -0.30", "control signals": "0 of 18"}
{"CDR-H1": "GFDLNEYGIS", "CDR-H2": "VIYADGMRTYYADNVK", "CDR-H3": "GNVAGTFDV", "log10 Kd (nM) by replicate": "-0.62 / -0.70 / -0.91 / -0.89 / -0.80 / -0.58", "control signals": "0 of 18"}
{"CDR-H1": "GFDLNEYGIS", "CDR-H2": "VIYADGMRTAYSDKVK", "CDR-H3": "GNNAGTFDV", "log10 Kd (nM) by replicate": "-0.18 / -0.32 / -0.09 / -0.44 / -0.38 / -0.22", "control signals": "0 of 18"}

In the paper, a design with two or fewer of six values counts as a poor binder. A sequence measured in both rounds can read differently, since the two assays cover different ranges. Background: pairings of all heavy chain designs with three empty control strains gave a value in 1% of cases (median 2.08, 5th percentile 0.84). Values in that range, when seen in few replicates, are hard to tell from nonspecific mating. Also given: how often the same scFv was detected with the empty control strains, with their mean in brackets.